Measurements: patent publication US6515010B1, “Carvedilol methanesulfonate” (SmithKline Beecham Corporation, priority 1999, dated 2003)
Values after ≈ are worked out from the molar mass of the structure shown.

Test: physchem
Conditions: 25 °C, water, thermodynamic from solid

solubility at 0.5 hr: 5 µg/mL (≈ 12.3 µM)
SMILES: COc1ccccc1OCCNCC(O)COc1cccc2[nH]c3ccccc3c12 (stereo not shown) [Carvedilol]
